For 4 compounds, EC50 results are on record in patent US20160274108A1, “DIAGNOSTIC METHODS FOR PAR4 ANTAGONIST THERAPY” (BRISTOL-MYERS SQUIBB COMPANY, priority 2013, published 2016).

For the assay, the target named is T1, washed platelet suspension (Homo sapiens, UniProt Q96RI0).
T1 sequence (Q96RI0 48-385): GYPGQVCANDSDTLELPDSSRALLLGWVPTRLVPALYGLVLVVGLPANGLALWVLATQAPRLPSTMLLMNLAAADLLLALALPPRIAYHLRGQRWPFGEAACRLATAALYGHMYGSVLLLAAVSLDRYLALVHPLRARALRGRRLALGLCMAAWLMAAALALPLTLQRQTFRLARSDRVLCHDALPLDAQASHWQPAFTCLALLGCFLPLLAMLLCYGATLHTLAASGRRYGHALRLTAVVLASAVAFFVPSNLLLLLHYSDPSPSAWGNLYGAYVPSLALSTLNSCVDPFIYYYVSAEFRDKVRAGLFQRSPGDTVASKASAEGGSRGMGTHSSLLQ
In words: PAR4 agonist peptide induced platelet aggregation assay (96-well microplate). Format: cell-based. Conditions: read-out: ED50 (μM) [Platelet Aggregation]; washed platelets, 37° C., read at 405 nm up to 15 minutes. As for the experimental part:
The ability of the peptides comprising Formulas (I) to (IV) to induce platelet aggregation was tested in a 96-well microplate aggregation assay format. Briefly, a washed platelet suspension with varying concentrations of agonist compounds was assayed. Aggregation was initiated by the addition of a titered test agonist peptide. The plate was then placed into a 37° C. Molecular Devices SPECTRAMAX® Plus Plate Reader (Sunnyvale, Calif.). […] The plate also included an untreated control sample that served as ODmax, while buffer containing no platelets was the ODmin. Platelet aggregation was determined by subtracting the ODmax from the ODmin for the 100% aggregation value. In experimental samples, the observed transmission was subtracted from the minimum value and then compared to the 100% aggregation value to determine the percentage aggregation. ED50 values were determined using Excel Fit software.

For the compound `CC(C)C[C@H](NC(=O)[C@H](Cc1c[nH]c2ccccc12)NC(=O)CNC(=O)[C@@H]1CCCN1C(=O)[C@H](Cc1ccc(F)cc1)NC(=O)[C@H](C)N)C(=O)N[C@H](C(N)=O)C(C)C` [compound 6], the EC50 was 1.1 µM.
Turning to `CC(C)C[C@H](NC(=O)[C@H](Cc1c(F)c(F)c(F)c(F)c1F)NC(=O)CNC(=O)[C@@H]1CCCN1C(=O)[C@H](Cc1ccc(F)cc1)NC(=O)[C@H](C)N)C(=O)N[C@H](C(N)=O)C(C)C` [compound 24], the EC50 amounted to 0.69 µM.
Take `CC(C)C[C@H](NC(=O)[C@H](Cc1cccc2ccccc12)NC(=O)CNC(=O)[C@@H]1CCCN1C(=O)[C@H](Cc1ccc(F)cc1)NC(=O)[C@H](C)N)C(=O)N[C@H](C(N)=O)C(C)C` [compound 31]: the EC50 is 0.63 µM.
Turning to `CC(C)C[C@H](NC(=O)[C@H](Cc1ccc2ccccc2c1)NC(=O)CNC(=O)[C@@H]1CCCN1C(=O)[C@H](Cc1ccc(F)cc1)NC(=O)[C@H](C)N)C(=O)N[C@H](C(N)=O)C(C)C` [compound 32], the EC50 is 0.61 µM.
